Measurements: ChEMBL document CHEMBL4354812, “N-Benzyl/Aryl Substituted Tryptanthrin as Dual Inhibitors of Indoleamine 2,3-Dioxygenase and Tryptophan 2,3-Dioxygenase” (J Med Chem, 2019)
Active and inactive are the calls of the source. The rule behind the calls is not given here.

Protein sequences, listed by entry. Tags and fused reporters are not part of them.
UniProt P14902, whole entry, looked up: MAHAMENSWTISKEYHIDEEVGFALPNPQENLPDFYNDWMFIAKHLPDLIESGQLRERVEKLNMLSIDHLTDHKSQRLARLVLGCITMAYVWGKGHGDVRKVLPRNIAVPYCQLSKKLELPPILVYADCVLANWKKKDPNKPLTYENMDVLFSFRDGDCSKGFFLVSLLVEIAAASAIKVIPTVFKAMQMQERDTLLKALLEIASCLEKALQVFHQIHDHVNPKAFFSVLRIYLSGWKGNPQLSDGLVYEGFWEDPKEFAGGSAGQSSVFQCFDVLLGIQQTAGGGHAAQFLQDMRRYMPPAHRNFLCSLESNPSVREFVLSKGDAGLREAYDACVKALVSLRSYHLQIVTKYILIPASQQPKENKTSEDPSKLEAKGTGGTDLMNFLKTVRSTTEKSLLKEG

Molecular target: Indoleamine 2,3-dioxygenase 1 (Homo sapiens, UniProt P14902)
Assay: Binding affinity to heme in human IDO1 assessed as Soret band red shift from 405 nm to […] at 375 uM and pH 6.5 under normal atmospheric condition by UV-vis spectroscopy analysis

Activity: inactive
SMILES: CN1CCN(Cc2ccc3nc4n(c(=O)c3c2)-c2ccc(F)cc2C4=O)CC1
